Tested on: U-937
Test: cells
Type: functional, cell-based
Details: Homo sapiens, U-937, 72 h

SMILES	IC50
CSc1ccc(/C=C/c2nc(NCCN(C)C)c3ccccc3n2)cc1	6.63 µM
CC(C)c1ccc(/C=C/c2nc(NCCN(C)C)c3cc(Cl)ccc3n2)cc1	3.56 µM
